# Test results from PubChem BioAssay AID540275 (National Center for Advancing Translational Sciences (NCATS), 2011).
# Amino acid sequences for entries named in this document (tags omitted).
# UniProt Q8NER1, whole entry, looked up: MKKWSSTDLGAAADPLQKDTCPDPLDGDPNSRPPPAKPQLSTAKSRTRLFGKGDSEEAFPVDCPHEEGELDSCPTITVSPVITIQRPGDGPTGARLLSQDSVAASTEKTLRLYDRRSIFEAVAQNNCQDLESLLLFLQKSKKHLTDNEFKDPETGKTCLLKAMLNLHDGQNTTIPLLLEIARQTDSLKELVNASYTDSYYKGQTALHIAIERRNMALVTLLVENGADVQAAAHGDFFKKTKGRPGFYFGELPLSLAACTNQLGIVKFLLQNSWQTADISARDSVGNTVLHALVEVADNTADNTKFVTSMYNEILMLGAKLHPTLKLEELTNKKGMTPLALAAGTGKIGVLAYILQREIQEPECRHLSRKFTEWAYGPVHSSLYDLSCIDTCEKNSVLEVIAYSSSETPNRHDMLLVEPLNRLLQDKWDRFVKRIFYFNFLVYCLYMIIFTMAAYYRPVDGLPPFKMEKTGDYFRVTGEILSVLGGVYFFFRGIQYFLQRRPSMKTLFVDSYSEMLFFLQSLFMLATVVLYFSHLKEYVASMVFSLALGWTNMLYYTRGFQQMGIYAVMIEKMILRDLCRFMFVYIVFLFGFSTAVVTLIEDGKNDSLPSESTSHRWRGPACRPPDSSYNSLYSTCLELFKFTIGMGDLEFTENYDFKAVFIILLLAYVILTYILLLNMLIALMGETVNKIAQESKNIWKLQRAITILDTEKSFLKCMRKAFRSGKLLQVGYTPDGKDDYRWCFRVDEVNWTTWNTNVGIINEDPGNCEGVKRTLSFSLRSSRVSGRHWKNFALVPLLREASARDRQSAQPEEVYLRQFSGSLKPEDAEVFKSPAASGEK
# Screen size: about 320,000 compounds; about 620 (0.19%) were called active. All entries are inconclusive by the source's own rule. Clear calls are listed elsewhere. Rule as the data show it: active = activation above about 80%; inconclusive = between about 30% and that limit; inactive = weaker than that.
# Biological target: Transient receptor potential cation channel subfamily V member 1 (Homo sapiens) (UniProt Q8NER1)
# Assay: HTS Assay for Compounds that Act as Agonists of the Vanilloid Receptor 1; also: 0% is about no effect
# Conditions: TRPV1-expressing cells, Fluo-8 calcium influx, agonist mode; at 8.33 µM; active compounds read high
# Text: The transient receptor potential ion channel, family V, number 1, (TRPV1) is one of the most important molecular transducers of painful stimuli and a potential target for analgesic drug development. Although recent clinical trials with orthosteric antagonists have not produced a successful drug because of a hyperthermia side effect and their tendency to block thermal noxious pain, this ion channel is undeniably well placed in the pain pathway, and the idea of blocking pain signals before they enter the CNS is an excellent concept and of proven efficacy when TRPV1 agonists are used. We propose a new approach involving allosteric modulation to impose an activity-dependent constraint within the context of inflammation and tissue damage that would alter the responsiveness of the channel in a way that an orthosteric vanilloid antagonist cannot achieve. We believe that the allosteric modulator approach has not been explored for this target. The main goal of this proposal is to identify additional, new, potent allosteric modulators of TRPV1 that can be used to investigate TRPV1 function. Our recent report provides evidence of proof of concept, but the compounds are just at the edge of utility in terms of potency. […] The question of whether they can be used as analgesic agents is complex, but if suitable compounds are identified then testing for analgesic properties will be conducted. NIH Chemical Genomics Center [NCGC] NIH Molecular Libraries Probe Centers Network [MLPCN] MLPCN Grant: MH089480-1A1 Assay Submitter (PI): Michael Iadarola, National Institute of Dental and Cranofacial Research
# Upon TRPV1 activation in TRPV1 cells, the channel opens and extracellular cations flow through the channel into the cytosol. A calcium binding dye (Fluo-8) becomes fluorescent when bound to calcium. This dye is pre-loaded into cells and is used as a marker for calcium influx. The amount of accumulated calcium is precisely quantified using the FDSS kinetic reader and the calcium dye. For the HTS assay, freshly prepared cells are plated at a density of 2000/well in 3 ul medium in 1536-well plates and cultured overnight at 35.5C. Cells will be loaded with 1 ul of the homogeneous calcium dye (ABD Bioquest) at room temperature for 40 to 90 minutes. Plates will be loaded into the FDSS kinetic reader and a 1 sec / cycle for 10 second baseline signal will be measured. Compound library will then be added with a pintool at 23 nl and measured kinetically for 3 minutes. This portion of the read is considered the agonist portion of the screen. Following the 3 minutes of incubation, an on board pipettor will deliver 1 ul of capsaicin for a final concentration equal to the EC20. Signal will be measured kinetically for an additional 2 minutes. This portion of the read is considered the allosteric enhancer portion of the screen. The FDSS reader has a standard filter set capable of measuring calcium bound Fluo-8 (ex=480 and em=520 nm).
row,SMILES,activation
1,Cc1c2c(nc3ccccc13)SC(C(Cl)Cl)C2 (stereo unspecified),inconclusive: 32.7%
2,CCOP(=O)(NC(=NC(C)c1ccccc1)NC(C)c1ccccc1)OCC (stereo unspecified),inconclusive: 35%
3,CC1CCC(C(C)C)C(OP(=O)(Nc2ccccn2)c2ccccc2)C1 (stereo unspecified),inconclusive: 57.3%
4,Cc1ccc(NP(=O)(Oc2cccc(C)c2)Oc2cccc(C)c2)nc1,inconclusive: 38.6%
5,Cc1ccc(OP(=O)(Nc2ccccn2)Oc2ccc(C)cc2)cc1,inconclusive: 44.4%
6,O=P(Nc1nc2ccc(Cl)cc2s1)(c1ccccc1)c1ccccc1,inconclusive: 54.8%
